Source: patent US20060069040A1, “GHB compositions” (priority 2004, published 2006)

Assay: Solubility in saline
Assay type: physicochemical
Conditions: saline dosing solution; 0.48 mmol/kg

With `O=C(O)Cc1ccccc1` [PA, phenylacetic acid] as the molecule, how does the “Greatest quantity that would dissolve in a saline solution” value read?
The value was 66 mg/kg.
